What was measured:
BRD4 = BRD4 (Homo sapiens, UniProt O60885); assay: BRD4 degradation in MV4;11 cells (immunoblotting)
MV4;11 cells = assay: Cell viability inhibition of MV4;11 cells (CellTiter-Glo); settings: read-out: Cell viability inhibition IC50, 3 days, 3-fold serial dilution
cyclin D1 = assay: Cyclin D1 degradation in T47D cells (immunoblotting); settings: 16 hours
CDK4 [1] = target: T1, CDK4 (Homo sapiens, UniProt P11802); assay: CDK4 degradation in T47D cells (immunoblotting); settings: 16 hours
CDK4 [2] = target: T1, CDK4; assay: CDK4 degradation in MOLT-4 cells (immunoblotting); settings: 8 hours

Sequences of proteins named here, by UniProt entry; tags and fusion partners are left off.
UniProt P11802, whole entry: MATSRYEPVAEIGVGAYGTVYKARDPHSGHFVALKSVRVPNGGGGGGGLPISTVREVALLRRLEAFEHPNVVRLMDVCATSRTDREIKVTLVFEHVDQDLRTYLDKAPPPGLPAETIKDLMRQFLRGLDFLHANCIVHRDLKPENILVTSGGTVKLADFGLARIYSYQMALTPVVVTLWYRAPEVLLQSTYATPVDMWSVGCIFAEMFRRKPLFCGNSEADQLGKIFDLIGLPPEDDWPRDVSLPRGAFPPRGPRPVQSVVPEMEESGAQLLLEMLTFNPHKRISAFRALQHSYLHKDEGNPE

Row | Compound | % BRD4 Degradation (at 10 μM) (BRD4) | IC50 (MV4;11 cells) | % CDK4 Degradation (at 1 μM) (CDK4 [2]) | % CDK4 degradation (at 10 μM) (CDK4 [2]) | further results
1 | Cc1sc2c(c1C)C(c1ccc(Cl)cc1)=N[C@@H](CC(=O)NCCOCCOCCOCCN1CCN(c3cc(N[C@@H]4CCCN(c5cccc(F)c5)C4)ncn3)CC1)c1nnc(C)n1-2 | D (D < 20%) | 100 to 300 nM | – | – | –
2 | Cc1sc2c(c1C)C(c1ccc(Cl)cc1)=N[C@@H](CC(=O)NCCOCCOCCOCCOCCN1CCN(c3cc(N[C@@H]4CCCN(c5cccc(F)c5)C4)ncn3)CC1)c1nnc(C)n1-2 | B (40% ≤ B < 70%) | 100 to 300 nM | – | – | –
3 | C[C@]1(O)CCC[C@@H]1n1c(=O)c(C(F)F)cc2cnc(NC3CCN(C(=O)CCCCCCCN4CCN(c5cc(N[C@@H]6CCCN(c7cccc(F)c7)C6)ncn5)CC4)CC3)nc21 | – | – | – | – | % Cyclin D1 Degradation (at 1 μM) (cyclin D1): D (D < 20%); % CDK4 Degradation (at 1 μM) (CDK4 [1]): C (20% ≤ C < 40%)
4 | C[C@]1(O)CCC[C@@H]1n1c(=O)c(C(F)F)cc2cnc(NC3CCN(C(=O)CCCCCN4CCN(c5cc(N[C@@H]6CCCN(c7cccc(F)c7)C6)ncn5)CC4)CC3)nc21 | – | – | – | – | % Cyclin D1 Degradation (at 1 μM) (cyclin D1): A (A: ≥ 70%); % CDK4 Degradation (at 1 μM) (CDK4 [1]): B (40% ≤ B < 70%)
5 | CC(C)S(=O)(=O)c1ccccc1Nc1nc(Nc2ccc(N3CCN(CC(=O)NCCCCCCN4CCN(c5cc(N[C@@H]6CCCN(c7cccc(F)c7)C6)ncn5)CC4)CC3)cc2)ncc1Cl | – | – | D (D < 20%) | C (20% ≤ C < 40%) | –
6 | CC(C)S(=O)(=O)c1ccccc1Nc1nc(Nc2ccc(N3CCN(C(=O)CCOCCOCCN4CCN(c5cc(N[C@@H]6CCCN(c7cccc(F)c7)C6)ncn5)CC4)CC3)cc2)ncc1Cl | – | – | C (20% ≤ C < 40%) | B (40% ≤ B < 70%) | –
7 | C[C@]1(O)CCC[C@@H]1n1c(=O)c(C(F)F)cc2cnc(NC3CCN(C(=O)CCOCCOCCOCCOCCN4CCN(c5cc(N[C@@H]6CCCN(c7cccc(F)c7)C6)ncn5)CC4)CC3)nc21 | – | – | – | – | % Cyclin D1 Degradation (at 1 μM) (cyclin D1): D (D < 20%); % CDK4 Degradation (at 1 μM) (CDK4 [1]): D (D < 20%)
8 | CC(C)S(=O)(=O)c1ccccc1Nc1nc(Nc2ccc(N3CCN(CC(=O)NCCN4CCN(c5cc(N[C@@H]6CCCN(c7cccc(F)c7)C6)ncn5)CC4)CC3)cc2)ncc1Cl | – | – | B (40% ≤ B < 70%) | A (A: ≥ 70%) | –
9 | CC(C)S(=O)(=O)c1ccccc1Nc1nc(Nc2ccc(N3CCN(CC(=O)NCCOCCOCCN4CCN(c5cc(N[C@@H]6CCCN(c7cccc(F)c7)C6)ncn5)CC4)CC3)cc2)ncc1Cl | – | – | D (D < 20%) | C (20% ≤ C < 40%) | –
10 | Cc1sc2c(c1C)C(c1ccc(Cl)cc1)=N[C@@H](CC(=O)NCCOCCOCCN1CCN(c3cc(N[C@@H]4CCCN(c5cccc(F)c5)C4)ncn3)CC1)c1nnc(C)n1-2 | A (A: ≥ 70%) | < 100 nM | – | – | –
11 | Cc1sc2c(c1C)C(c1ccc(Cl)cc1)=N[C@@H](CC(=O)NCCNC(=O)CCCCCCCN1CCN(c3cc(N[C@@H]4CCCN(c5cccc(F)c5)C4)ncn3)CC1)c1nnc(C)n1-2 | D (D < 20%) | 100 to 300 nM | – | – | –
12 | CC(C)S(=O)(=O)c1ccccc1Nc1nc(Nc2ccc(N3CCN(CC(=O)NCCCCCN4CCN(c5cc(N[C@@H]6CCCN(c7cccc(F)c7)C6)ncn5)CC4)CC3)cc2)ncc1Cl | – | – | B (40% ≤ B < 70%) | A (A: ≥ 70%) | –
13 | Cc1sc2c(c1C)C(c1ccc(Cl)cc1)=N[C@@H](CC(=O)NCCNC(=O)CCOCCOCCOCCOCCN1CCN(c3cc(N[C@@H]4CCCN(c5cccc(F)c5)C4)ncn3)CC1)c1nnc(C)n1-2 | D (D < 20%) | 300 to 1000 nM | – | – | –
14 | Cc1sc2c(c1C)C(c1ccc(Cl)cc1)=N[C@@H](CC(=O)NCCNC(=O)CCOCCOCCN1CCN(c3cc(N[C@@H]4CCCN(c5cccc(F)c5)C4)ncn3)CC1)c1nnc(C)n1-2 | D (D < 20%) | 300 to 1000 nM | – | – | –
15 | Cc1sc2c(c1C)C(c1ccc(Cl)cc1)=N[C@@H](CC(=O)NCCNC(=O)CCCCCN1CCN(c3cc(N[C@@H]4CCCN(c5cccc(F)c5)C4)ncn3)CC1)c1nnc(C)n1-2 | C (20% ≤ C < 40%) | 100 to 300 nM | – | – | –
16 | CC(C)S(=O)(=O)c1ccccc1Nc1nc(Nc2ccc(N3CCN(CC(=O)NCCCCN4CCN(c5cc(N[C@@H]6CCCN(c7cccc(F)c7)C6)ncn5)CC4)CC3)cc2)ncc1Cl | – | – | B (40% ≤ B < 70%) | B (40% ≤ B < 70%) | –
17 | CC(C)S(=O)(=O)c1ccccc1Nc1nc(Nc2ccc(N3CCN(CC(=O)NCCOCCOCCOCCOCCN4CCN(c5cc(N[C@@H]6CCCN(c7cccc(F)c7)C6)ncn5)CC4)CC3)cc2)ncc1Cl | – | – | C (20% ≤ C < 40%) | A (A: ≥ 70%) | –

Row | Compound | % BRD4 Degradation (at 10 μM) (BRD4) | IC50 (MV4;11 cells) | % CDK4 Degradation (at 1 μM) (CDK4 [2]) | % CDK4 degradation (at 10 μM) (CDK4 [2]) | further results
18 | Cc1sc2c(c1C)C(c1ccc(Cl)cc1)=N[C@@H](CC(=O)NCCNC(=O)CCCN1CCN(c3cc(N[C@@H]4CCCN(c5cccc(F)c5)C4)ncn3)CC1)c1nnc(C)n1-2 | D (D < 20%) | 100 to 300 nM | – | – | –
19 | CC(C)S(=O)(=O)c1ccccc1Nc1nc(Nc2ccc(N3CCN(CC(=O)NCCCCCCCCN4CCN(c5cc(N[C@@H]6CCCN(c7cccc(F)c7)C6)ncn5)CC4)CC3)cc2)ncc1Cl | – | – | C (20% ≤ C < 40%) | A (A: ≥ 70%) | –
20 | Cc1sc2c(c1C)C(c1ccc(Cl)cc1)=N[C@@H](CC(=O)NCCNC(=O)CCOCCOCCOCCN1CCN(c3cc(N[C@@H]4CCCN(c5cccc(F)c5)C4)ncn3)CC1)c1nnc(C)n1-2 | D (D < 20%) | 100 to 300 nM | – | – | –
21 | CC(C)S(=O)(=O)c1ccccc1Nc1nc(Nc2ccc(N3CCN(CC(=O)NCCOCCOCCOCCN4CCN(c5cc(N[C@@H]6CCCN(c7cccc(F)c7)C6)ncn5)CC4)CC3)cc2)ncc1Cl | – | – | D (D < 20%) | A (A: ≥ 70%) | –
22 | CC(C)S(=O)(=O)c1ccccc1Nc1nc(Nc2ccc(N3CCN(C(=O)CN4CCN(c5cc(N[C@@H]6CCCN(c7cccc(F)c7)C6)ncn5)CC4)CC3)cc2)ncc1Cl | – | – | D (D < 20%) | B (40% ≤ B < 70%) | –
23 | Cc1sc2c(c1C)C(c1ccc(Cl)cc1)=N[C@@H](CC(=O)NCCCCN1CCN(c3cc(N[C@@H]4CCCN(c5cccc(F)c5)C4)ncn3)CC1)c1nnc(C)n1-2 | A (A: ≥ 70%) | 100 to 300 nM | – | – | –
24 | CC(C)S(=O)(=O)c1ccccc1Nc1nc(Nc2ccc(N3CCN(CC(=O)NCCOCCN4CCN(c5cc(N[C@@H]6CCCN(c7cccc(F)c7)C6)ncn5)CC4)CC3)cc2)ncc1Cl | – | – | D (D < 20%) | A (A: ≥ 70%) | –
25 | Cc1sc2c(c1C)C(c1ccc(Cl)cc1)=N[C@@H](CC(=O)NCCN1CCN(c3cc(N[C@@H]4CCCN(c5cccc(F)c5)C4)ncn3)CC1)c1nnc(C)n1-2 | A (A: ≥ 70%) | < 100 nM | – | – | –
26 | CC(C)S(=O)(=O)c1ccccc1Nc1nc(Nc2ccc(N3CCN(C(=O)CCCCCCCN4CCN(c5cc(N[C@@H]6CCCN(c7cccc(F)c7)C6)ncn5)CC4)CC3)cc2)ncc1Cl | – | – | C (20% ≤ C < 40%) | B (40% ≤ B < 70%) | –
27 | CC(C)S(=O)(=O)c1ccccc1Nc1nc(Nc2ccc(N3CCN(C(=O)CCOCCN4CCN(c5cc(N[C@@H]6CCCN(c7cccc(F)c7)C6)ncn5)CC4)CC3)cc2)ncc1Cl | – | – | B (40% ≤ B < 70%) | A (A: ≥ 70%) | –
28 | Cc1sc2c(c1C)C(c1ccc(Cl)cc1)=N[C@@H](CC(=O)NCCCCCCN1CCN(c3cc(N[C@@H]4CCCN(c5cccc(F)c5)C4)ncn3)CC1)c1nnc(C)n1-2 | D (D < 20%) | 100 to 300 nM | – | – | –
29 | Cc1sc2c(c1C)C(c1ccc(Cl)cc1)=N[C@@H](CC(=O)NCCNC(=O)CCOCCN1CCN(c3cc(N[C@@H]4CCCN(c5cccc(F)c5)C4)ncn3)CC1)c1nnc(C)n1-2 | D (D < 20%) | 300 to 1000 nM | – | – | –
30 | CC(C)S(=O)(=O)c1ccccc1Nc1nc(Nc2ccc(N3CCN(C(=O)CCCCCN4CCN(c5cc(N[C@@H]6CCCN(c7cccc(F)c7)C6)ncn5)CC4)CC3)cc2)ncc1Cl | – | – | D (D < 20%) | C (20% ≤ C < 40%) | –
31 | Cc1sc2c(c1C)C(c1ccc(Cl)cc1)=N[C@@H](CC(=O)NCCCCCCCCN1CCN(c3cc(N[C@@H]4CCCN(c5cccc(F)c5)C4)ncn3)CC1)c1nnc(C)n1-2 | D (D < 20%) | 100 to 300 nM | – | – | –
32 | Cc1sc2c(c1C)C(c1ccc(Cl)cc1)=N[C@@H](CC(=O)NCCOCCN1CCN(c3cc(N[C@@H]4CCCN(c5cccc(F)c5)C4)ncn3)CC1)c1nnc(C)n1-2 | A (A: ≥ 70%) | < 100 nM | – | – | –
33 | Cc1sc2c(c1C)C(c1ccc(Cl)cc1)=N[C@@H](CC(=O)NCCNC(=O)CN1CCN(c3cc(N[C@@H]4CCCN(c5cccc(F)c5)C4)ncn3)CC1)c1nnc(C)n1-2 | D (D < 20%) | 300 to 1000 nM | – | – | –
34 | CC(C)S(=O)(=O)c1ccccc1Nc1nc(Nc2ccc(N3CCN(C(=O)CCOCCOCCOCCN4CCN(c5cc(N[C@@H]6CCCN(c7cccc(F)c7)C6)ncn5)CC4)CC3)cc2)ncc1Cl | – | – | B (40% ≤ B < 70%) | A (A: ≥ 70%) | –
